Source: PubChem BioAssay AID847 (SRMLSC, 2007)
Only a part is listed here, and it is no random draw. Some tests of the compounds listed are not included; inactive here does not mean inactive elsewhere. Calls of active or inactive are those of the source.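 The calls were made as follows: active = viability at or below the median of all test compounds minus 3 SD, in both replicates if run twice (cut at about 45% in these data); inconclusive = duplicate replicates that disagree with each other; inactive = viability above that cutoff in every replicate.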

Test: SK-BR-3 proliferation inhibitors, primary screen, cell-based, human, 24 h (AID 847);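 also: 100% = median untreated cell wells and 0% = median positive control drug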
Details: SK-BR-3 viability, CellTiter-Glo ATP luminescence, at 10 µM, stronger effect = lower value

Row | SMILES | viability
1 | O=C(OC1CN2CCC1CC2)C(CO)(c1ccccc1)c1ccccc1 (stereo unspecified) | inactive: 90%
